# Source: patent US10960088B2, “Macrocycles, cobalt and iron complexes of same, and methods of making and using same” (The Research Foundation for The State University of New York, priority 2013, dated 2021)
# Test: Oxidation in air / reduction with dithionite followed by 1H NMR
# Type: physicochemical
substance,measurement,value
"cobalt (II) complex of 2,2′-(1,7-dioxa-4,10-diazacyclododecane-4,10-diyl)diacetamide chloride [[Co(NODA)]^2+]",stability towards oxidation in air (in words),air-stable
